Screens deposited in PubChem by Broad Institute.
RAD52 inh = RAD52 (human) annealing inhibition. recombinant RAD52 DNA annealing, FRET fluorescence. inhibition, % at 18.7 µM. hit rate 0.46% among 360,000. AID 651710;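 active means every replicate showing at least 50% inhibition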
UUG fidelity = yeast start codon fidelity modulation; AID 602363; activity score, % at 18.7 µM; S. cerevisiae UUG-firefly luciferase reporter, luminescence/redox ratio; 0.13% of 350,000 active;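 active means replicate mean at a twofold rise or more, about +100% in these data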;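 further: firefly luciferase made from a UUG start codon reports start codon fidelity; reporter light over untreated wells divided by growth signal over untreated wells; some hits fall short of that in this replicate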
PglD inh = PglD (C. jejuni) enzyme inhibition; purified PglD enzyme, DTNB colorimetric CoA detection; hit rate 0.098% among 360,000; inhibition, % at 12.5 µM; in the data active means inhibition above about 16%, passing the limit was not always enough
RAD54 inh = blocks human RAD54 Holliday junction branch migration | FAM/BHQ fluorescence | inhibition, % at 10.4 µM | hit rate 0.14% among 360,000;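 active means mean normalized replicate activity at least 40 and at least half of replicates scoring 40 or more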;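 further: inhibitors cause a drop in the FAM fluorescence signal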
GSIS activator = primary screen for activators of insulin secretion dependent on glucose, INS-1E cells, GLuc reporter luminescence. INS-1E GLuc reporter insulin secretion, 2-3 h. activation, % at 16.6 µM. hit rate 0.61% among 370,000. AID 743287;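 active means lowest replicate activation of at least 40%, so every replicate reaches that level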
CASP6 VEID inh = blocks human caspase-6 cleavage activity. P55212. purified caspase-6, Z-VEID-R110 cleavage fluorescence. AID 686996. hit rate 0.53% among 350,000. inhibition, % at 12.5 µM;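 active means mean inhibition across replicates at least about 35%, with every replicate also reaching that limit, limit read from the data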
PglD confirm = blocks Campylobacter jejuni PglD acetyltransferase activity. shares compounds with PglD inh. Purified C. jejuni PglD, DTNB absorbance 412 nm. inhibition, % at 20 µM. 320 tested, under 10 active;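 active means mean inhibition across replicates of at least 20% with every single replicate also at 20% or more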;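 further: initial rate of CoA release by acetyl transfer from AcCoA to the UDP-4-amino sugar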
Each line names hits and unclear results; the compound was inactive in the other large screens (follow-up assays come after a bar, where they were run). This is a sample that favours compounds with a hit; in the whole collection about 1.5% have one here.

O=C(COc1ccccc1)NCc1ccco1	none (no result: GSIS activator)
Cn1nc(Cc2cccc3ccccc23)c(C#N)c1N	none
CC(C)n1nc(Cc2cccc3ccccc23)c(C#N)c1N	PglD inh 89 (no result: GSIS activator) | PglD confirm inactive
COc1ccc(C(CNc2ccc(S(C)(=O)=O)cc2[N+](=O)[O-])N(C)C)cc1OC (configuration not stated)	PglD inh 23 (no result: CASP6 VEID inh) | PglD confirm inactive
CN(C)C(CNc1ccc(S(C)(=O)=O)cc1[N+](=O)[O-])c1ccccc1 (configuration not stated)	none
Cn1nc([N+](=O)[O-])nc1N1CCOCC1	PglD inh 21 (no result: RAD52 inh, CASP6 VEID inh) | PglD confirm inactive
O=[N+]([O-])c1cccc(/C=N/NC2=NCCCCC2)c1	none (no result: UUG fidelity, PglD inh, RAD54 inh)
O=C(c1ccc2c(=O)n3c(nc2c1)CCCCC3)N1CCN(c2ccc(Cl)cc2)CC1	none
CCCCN1C(=O)c2ccc(C(=O)Nc3ccc(C)c(S(=O)(=O)N(C)C)c3)cc2C1=O	PglD inh 25 (no result: RAD52 inh, CASP6 VEID inh) | PglD confirm inactive
CCN(CC)S(=O)(=O)c1ccc(C(=O)OCC(=O)NCc2ccco2)cc1	none (no result: UUG fidelity, PglD inh, RAD54 inh)
COc1ccc(-c2cc(-c3ccc(OC)cc3)[nH]n2)cc1	PglD inh 32 (no result: RAD52 inh, CASP6 VEID inh) | PglD confirm inactive
Cc1ccc(-c2ccc3c(c2)O[C@@H](CN(C)C(=O)NC(C)C)[C@H](C)CN([C@@H](C)CO)S3(=O)=O)cc1	none
COC(=O)c1ccc(CSc2nc3sc(C(=O)O)c(C)c3c(=O)[nH]2)cc1	none (no result: UUG fidelity, PglD inh, RAD54 inh)
Cc1c(C(=O)O)sc2nc(/C=C/c3cccc(O)c3)[nH]c(=O)c12	PglD inh 45 | PglD confirm 79
O=C(NC1CCS(=O)(=O)C1)/C(=C/c1ccc(Cl)cc1)NC(=O)c1ccccc1 (configuration not stated)	PglD inh 76 | PglD confirm inactive
CCOc1cc(C=O)ccc1OCCCN1C(=O)NC(C)(C)C1=O	none (no result: RAD52 inh, GSIS activator, CASP6 VEID inh)
CC(C)(C)c1cc[n+](-c2[nH]c(=O)sc2/C=N/NC([S-])=Nc2ccccc2)cc1	PglD inh 21 | PglD confirm inactive
O=c1c2c([nH]c3ccccc13)CCCC2	none (no result: RAD52 inh, CASP6 VEID inh)
CC(C)(C)C1CCc2[nH]c3ccccc3c(=O)c2C1 (configuration not stated)	PglD inh 28 (no result: RAD52 inh, CASP6 VEID inh) | PglD confirm inactive
Nc1ccc(CC(N)c2csc(Nc3cc(Oc4ccccc4)ncn3)n2)cc1 (configuration not stated)	none
NCc1csc(Nc2cc(Oc3ccccc3)ncn2)n1	PglD inh 21 (no result: GSIS activator) | PglD confirm inactive
Fc1ccc(CNC(=S)NC2CCCCC2)cc1	PglD inh 35 | PglD confirm inactive
Cc1ccc(C=Nc2ccccc2C(N)=O)cc1	none (no result: RAD52 inh, CASP6 VEID inh)
CN1CCN(C(=O)c2cc3c(s2)-c2ccccc2S(=O)(=O)C3)CC1	none (no result: GSIS activator)
O=[N+]([O-])c1ccc(O)c(-c2cc(C(F)(F)F)nc(-c3ccccc3)n2)c1	PglD inh 25 | PglD confirm inactive
CC(Sc1ccc2c(c1)OCCO2)C(=O)Nc1ccc2c(c1)OCO2 (configuration not stated)	none (no result: RAD52 inh, GSIS activator, CASP6 VEID inh)
C[C@H](NC(N)=O)C(=O)Nc1ccc2c(c1)OCO2	PglD inh 22 | PglD confirm inactive
CCOc1cccc(CN(CC)CC2CCCN(CCc3cccc(OC)c3)C2)c1O (configuration not stated)	none
CCN(Cc1cccc(OC)c1)CC1CCCN(CCc2cccc(OC)c2)C1 (configuration not stated)	PglD inh 22 | PglD confirm inactive
O=C(c1cc(-c2ccc(Cl)cc2)on1)N1CCOCC1	PglD inh 24 | PglD confirm inactive
O=C(O)c1cccnc1SC1CC(=O)N(Cc2ccccc2)C1=O (configuration not stated)	PglD inh 39 (no result: RAD52 inh, GSIS activator, CASP6 VEID inh) | PglD confirm inactive
O=C(O)c1cccnc1SC1CC(=O)N(CCc2ccccc2)C1=O (configuration not stated)	none
COc1cccc(CNC(=O)C[C@H]2CC[C@@H]3[C@H](COc4ccc(NC(=O)c5cccs5)cc4C(=O)N3C)O2)c1	none (no result: UUG fidelity)
Nc1cc(=O)[nH]c(=S)n1-c1cccc(C(F)(F)F)c1	PglD inh 44 (no result: RAD52 inh, GSIS activator, CASP6 VEID inh) | PglD confirm inactive
Cc1ccc2nc(C)cc(OCC(=O)O)c2c1	PglD inh 21 (no result: RAD52 inh, GSIS activator, CASP6 VEID inh) | PglD confirm inactive
